Structures are written as SMILES.

In patent publication US20240139185A1, “COMPOUNDS THAT PARTICIPATE IN COOPERATIVE BINDING AND USES THEREOF” (Revolution Medicines, Inc., priority 2018, published 2024) one finds IC50, Kd and EC50 data, which are given here for 29 molecules.

For experiment [1], the system named is pERK in H358 cells. The experiment in a line: pERK inhibition in H358 cells. The conditions noted are these: read-out: Cellular pERK inhibition, 4 hours treatment. Put shortly: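 Human lung cancer H358 cells in RPMI/10% FBS were exposed to compound or DMSO for 4 h. Fixed and permeabilized cells were stained overnight at 4 C with anti-phospho-ERK1/2 (Thr202/Tyr204). Near-infrared imaging read the pERK signal at 800 nm, with DRAQ5 at 700 nm.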

In experiment [2] the target is cyclophilin A (CYPA) (Homo sapiens, UniProt P62937). The experiment is described as follows: CYPA-compound binary complex formation by SPR. The conditions noted are these: read-out: CYPA Binding Affinity. Put shortly: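 CypA-Avi captured on a Biotin CAPture chip (4 μg/ml), reference flow cell subtracted. Compounds injected as 10-point 2-fold dilutions from 50 μM in HBS-P+ pH7.4 with 2% DMSO; 60 s association and 60 s dissociation, solvent-corrected. Affinity obtained by steady-state fitting.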

For experiment [3], the target named is BRAF-GTP-KRAS-G12C complex (Homo sapiens, UniProt P01116+P62937, G12C). The experiment is described as follows: KRAS-BRAF complex disruption through competition with CYPA-compound by TR-FRET. The conditions noted are these: read-out: BRAF-GTP-KRAS-G12C Disruption; biochemical BRAF-KRAS G12C-GTP disruption assay EC50, with CYPA. Put shortly: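 His6-KRAS G12C-GTP (1-169, 50 nM) with tagless CypA (1-165, 500 nM) was incubated with compound for 3 h at room temperature in pH 7.3 Hepes/NaCl/MgCl2 buffer containing GST-BRAF RBD. Anti-His Eu (10 nM) and anti-GST APC (50 nM) were then added for 1.5 h, and the 665/615 nm TR-FRET ratio was read. EC50 from 4-parameter fit; for specificity, wild-type KRAS replaced G12C, and CypA was omitted to test presenter dependence.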
(In general: In TR-FRET formats the signal depends on donor and acceptor labels being close together.)

As to `CC(C)[C@@H](C(=O)N[C@H]1Cc2cc(O)cc(c2)-c2ccc3c(C(C)(C)C#N)nn(c3c2)CC(C)(C)COC(=O)[C@@H]2CCCN(N2)C1=O)N(C)C(=O)C1CN(C(=O)CCl)C1`, the IC50 in experiment [1] was in the range of 1 to 10 µM. Also, the Kd in experiment [2] was greater than 15 µM. Moreover, the EC50 in experiment [3] is less than 0.5 µM.
For `CC(C)[C@@H](C(=O)N[C@H]1Cc2cc(O)cc(c2)-c2ccc3c4c(n(c3c2)C[C@H](C)COC(=O)[C@@H]2CCCN(N2)C1=O)CCCC4C#N)N(C)C(=O)C1CN(C(=O)CCl)C1` (stereo partly drawn) the same measures were 1 to 10 µM, 5 to 15 µM and less than 0.5 µM.
With `CC1COC(=O)[C@@H]2CCCN(N2)C(=O)[C@@H](NC(=O)[C@H](C(C)C)N(C)C(=O)C2CN(C(=O)CCl)C2)Cc2cc(O)cc(c2)-c2ccc3c(C#N)cn(c3c2)C1` (single isomer, unassigned) [Compound 88], the IC50 in experiment [1] fell in the range of 1 to 10 µM. Further, the Kd in experiment [2] was 5 to 15 µM. In experiment [3], the EC50 was less than 0.5 µM.
For `CC(C)[C@@H](C(=O)N[C@H]1Cc2cc(cc(C(F)F)c2)-c2ccc3c(C#N)cn(c3c2)C[C@H](C)COC(=O)[C@@H]2CCCN(N2)C1=O)N(C)C(=O)C1CN(C(=O)CCl)C1` the same measures were greater than 10 µM, greater than 15 µM and 0.5 to 5 µM.
For `C=CC(=O)N1CC[C@H](C(=O)N(C)[C@H](C(=O)N[C@H]2Cc3cc(O)cc(c3)-c3ccc4c(c3)N(CC(C)(C)COC(=O)[C@@H]3CCCN(N3)C2=O)CC4(C)COC)C(C)C)C1` (single isomer, unassigned) the same measures were 1 to 10 µM, 5 to 15 µM and 0.5 to 5 µM.
Regarding `CCn1cc2c3cc(ccc31)-c1cc(O)cc(c1)C[C@H](NC(=O)[C@H](C(C)C)N(C)C(=O)C1CN(C(=O)CCl)C1)C(=O)N1CCC[C@H](N1)C(=O)OCC(C)C2` (stereo partly drawn), in experiment [1], the IC50 was less than 1 µM. For the same molecule, in experiment [2], the Kd is less than 5 µM. In addition, the EC50 in experiment [3] was less than 0.5 µM.
Regarding `CC(C)[C@@H](C(=O)N[C@H]1Cc2cc(O)cc(c2)-c2ccc3c(C(C)(C)C#N)cn(c3c2)CC(Cl)COC(=O)[C@@H]2CCCN(N2)C1=O)N(C)C(=O)C1CN(C(=O)CCl)C1` (single isomer, unassigned), the IC50 in experiment [1] is 1 to 10 µM. The Kd in experiment [2] lay in the range of 5 to 15 µM. The EC50 in experiment [3] is less than 0.5 µM.
Regarding `C=CC(=O)N(C)[C@@H]1CCN([C@H](C(=O)N[C@H]2Cc3cc(O)cc(c3)-c3ccc4c(C(C)(C)C#N)cn(c4c3)C[C@H](C)COC(=O)[C@@H]3CCCN(N3)C2=O)C(C)C)C1=O`, in experiment [1], the IC50 was greater than 10 µM. Further, the Kd in experiment [2] is less than 5 µM. Further, the EC50 in experiment [3] is greater than 5 µM.
Regarding `COc1ccccc1-c1c(C#N)c2ccc3cc2n1C[C@H](C)COC(=O)[C@@H]1CCCN(N1)C(=O)[C@@H](NC(=O)[C@H](C(C)C)N(C)C(=O)C1CN(C(=O)CCl)C1)Cc1cc(O)cc-3c1`, in experiment [1], the IC50 was less than 1 µM. For the same molecule, in experiment [2], the Kd was greater than 15 µM. Besides, in experiment [3], the EC50 is less than 0.5 µM.
`CC(C)[C@@H](C(=O)N[C@H]1Cc2cc(O)cc(c2)-c2ccc3c(N4CCCC4=O)cn(c3c2)CC(C)(C)COC(=O)[C@@H]2CCCN(N2)C1=O)N(C)C(=O)C1CN(C(=O)CCl)C1`: the IC50 in experiment [1] lay within 1 to 10 µM. Moreover, in experiment [2], the Kd fell in the range of 5 to 15 µM. Also, the EC50 in experiment [3] was less than 0.5 µM.
Consider `CN(C(=O)C1CN(C(=O)CCl)C1)[C@@H](CC1CCC1)C(=O)N[C@H]1Cc2cc(O)cc(c2)-c2ccc3c(C(C)(C)C#N)cn(c3c2)CC(C)(C)COC(=O)[C@@H]2CCCN(N2)C1=O`, for which the IC50 in experiment [1] was greater than 10 µM. In experiment [2], the Kd is greater than 15 µM. Further, the EC50 in experiment [3] was 0.5 to 5 µM.
For `CC(C)[C@@H](C(=O)N[C@H]1Cc2cc(O)cc(c2)-c2ccc3c(C(C)(C)C#N)cn(c3c2)CC(C)(C)COC(=O)[C@@H]2CCCN(N2)C1=O)N1CCC2(CCN(C(=O)CCl)CC2)C1=O` the same measures were less than 1 µM, less than 5 µM and less than 0.5 µM.
For `C=CC(=O)N1CC[C@H](C(=O)N(C)[C@H](C(=O)N[C@H]2Cc3cc(O)cc(c3)-c3ccc4c(c3)N(CC(C)(C)COC(=O)[C@@H]3CCCN(N3)C2=O)CC4(C)COc2ccccn2)C(C)C)C1` (stereo partly drawn) the same measures were 1 to 10 µM, greater than 15 µM and 0.5 to 5 µM.
On to `CC(C)[C@@H](C(=O)N[C@H]1Cc2cc(O)cc(c2)-c2ccc3c(-c4ccccc4Oc4ccccc4)cn(c3c2)CC(C)(C)COC(=O)[C@@H]2CCCN(N2)C1=O)N(C)C(=O)C1CN(C(=O)CCl)C1`, for which, in experiment [1], the IC50 was in the range of 1 to 10 µM. In experiment [2], the Kd was greater than 15 µM. For the same molecule, the EC50 in experiment [3] was less than 0.5 µM.
For `CC(C)[C@@H](C(=O)N[C@H]1Cc2cc(O)cc(c2)-c2ccc3c(C(C)(C)CC#N)cn(c3c2)CC(C)(C)COC(=O)[C@@H]2CCCN(N2)C1=O)N(C)C(=O)C1CN(C(=O)[C@@H](C)Cl)C1` the same measures were 1 to 10 µM, 5 to 15 µM and 0.5 to 5 µM.
For `CC(C)[C@@H](C(=O)N[C@H]1Cc2cc(O)cc(c2)-c2ccc3c(C(C)(C#N)C4CCCC4)cn(c3c2)CC(C)(C)COC(=O)[C@@H]2CCCN(N2)C1=O)N(C)C(=O)C1CN(C(=O)CCl)C1` (stereo partly drawn) the same measures were less than 1 µM, greater than 15 µM and less than 0.5 µM.
As to `CC(C)[C@@H](C(=O)N[C@H]1Cc2cc(O)cc(c2)-c2ccc3cc(C(=O)N(C)C)n(c3c2)C[C@H](C)COC(=O)[C@@H]2CCCN(N2)C1=O)N(C)C(=O)C1CN(C(=O)CCl)C1`, the IC50 in experiment [1] lay within 1 to 10 µM. In addition, the Kd in experiment [2] was less than 5 µM. For the same molecule, the EC50 in experiment [3] is less than 0.5 µM.
For the molecule `C=CC(=O)N1CC[C@H](C(=O)N(C)[C@H](C(=O)N[C@H]2Cc3cc(O)cc(c3)-c3ccc4c(-c5ccc(Cl)cc5C#N)cn(c4c3)CC(C)(C)COC(=O)[C@@H]3CCCN(N3)C2=O)C(C)C)C1`, in experiment [1], the IC50 is 1 to 10 µM. In experiment [2], the Kd fell in the range of 5 to 15 µM. Moreover, the EC50 in experiment [3] was 0.5 to 5 µM.
For `CC(C)[C@@H](C(=O)N[C@H]1Cc2cc(O)cc(c2)-c2ccc3c(c2)N(C[C@H](C)COC(=O)[C@@H]2CCCN(N2)C1=O)CC3(C)CC#N)N(C)C(=O)C1CN(C(=O)[C@@H](C)Cl)C1` (stereo partly drawn) the same measures were greater than 10 µM, less than 5 µM and greater than 5 µM.
For `CC(C(=O)N[C@H]1Cc2cc(O)cc(c2)-c2ccc3c(C(C)(C)C#N)cn(c3c2)CC(C)(C)COC(=O)[C@@H]2CCCN(N2)C1=O)N(C)C(=O)C1CN(C(=O)CCl)C1` (stereo partly drawn) the same measures were greater than 10 µM, greater than 15 µM and 0.5 to 5 µM.
`CC(C)[C@@H](C(=O)N[C@H]1Cc2cc(O)cc(c2)-c2ccc3c(c2)N(C[C@H](C)COC(=O)[C@@H]2CCCN(N2)C1=O)CC3(C)/C=C/C#N)N(C)C(=O)C1CN(C(=O)CCl)C1` (single isomer, unassigned) [223]: in experiment [1], the IC50 lay in the range of 1 to 10 µM. For the same molecule, the Kd in experiment [2] is less than 5 µM. Further, the EC50 in experiment [3] is less than 0.5 µM.
For `C=CC(=O)N1CC[C@H](C(=O)N(C)[C@H](C(=O)N[C@H]2Cc3cc(O)cc(c3)-c3ccc4c(c3)c(cn4C(C)(C)C#N)CC(C)(C)COC(=O)[C@@H]3CCCN(N3)C2=O)C(C)C)C1` the same measures were 1 to 10 µM, greater than 15 µM and 0.5 to 5 µM.
For `CC#CC(=O)N1CCCC1C(=O)N(C)C(C(=O)NC1Cc2cc(O)cc(c2)-c2ccc3c(C#N)c(C)n(c3c2)CC(C)(C)COC(=O)C2CCCN(N2)C1=O)C(C)C` (stereo not drawn) the same measures were greater than 10 µM, greater than 15 µM and greater than 5 µM.
For `CC1COC(=O)[C@@H]2CCCN(N2)C(=O)[C@@H](NC(=O)[C@H](C(C)C)N(C)C(=O)C2CN(C(=O)CCl)C2)Cc2cc(O)cc(c2)-c2ccc3c(-c4ccc(C#N)cc4)cn(c3c2)C1` (stereo partly drawn) the same measures were 1 to 10 µM, 5 to 15 µM and less than 0.5 µM.
With `C=CC(=O)N1CCC(C(=O)N(C)[C@H](C(=O)N[C@H]2Cc3cc(O)cc(c3)-c3ccc4c(C(C#N)C5CCOCC5)cn(c4c3)CC(C)(C)COC(=O)[C@@H]3CCCN(N3)C2=O)C(C)C)C1` (stereo partly drawn), the IC50 in experiment [1] lay in the range of 1 to 10 µM. Further, in experiment [2], the Kd is less than 5 µM. Further, the EC50 in experiment [3] was 0.5 to 5 µM.
Turning to `C=CC(=O)N1CC[C@H](C(=O)N(C)[C@H](C(=O)N[C@H]2Cc3cc(O)cc(c3)-c3ccc4c(-c5ccccc5COC)c(C#N)n(c4c3)CC(C)(C)COC(=O)[C@@H]3CCCN(N3)C2=O)C(C)C)C1`, the IC50 in experiment [1] is less than 1 µM. The Kd in experiment [2] is greater than 15 µM. In addition, the EC50 in experiment [3] is less than 0.5 µM.
`CC(C)[C@@H](C(=O)N[C@H]1Cc2cc(O)cc(c2)-c2ccc3c(C(C)(C)C(C)O)cn(c3c2)C[C@H](C)COC(=O)[C@@H]2CCCN(N2)C1=O)N(C)C(=O)C1CN(C(=O)CCl)C1` (stereo partly drawn): in experiment [1], the IC50 lay within 1 to 10 µM. Also, the Kd in experiment [2] is less than 5 µM. Moreover, the EC50 in experiment [3] was less than 0.5 µM.
For `CC(C)[C@@H](C(=O)N[C@H]1Cc2cc(O)cc(c2)-c2ccc3c(-c4ccc(F)cc4C#N)cn(c3c2)CC(C)(C)COC(=O)[C@@H]2CCCN(N2)C1=O)N(C)C(=O)C1CN(C(=O)CCl)C1`, the IC50 in experiment [1] was less than 1 µM. For the same molecule, the Kd in experiment [2] lay in the range of 5 to 15 µM. The EC50 in experiment [3] was less than 0.5 µM.
For `Cc1nn2c3cc(ccc13)-c1cc(O)cc(c1)C[C@H](NC(=O)[C@H](C(C)C)N(C)C(=O)C1CN(C(=O)CCl)C1)C(=O)N1CCC[C@H](N1)C(=O)OCC(C)(C)C2` the same measures were less than 1 µM, 5 to 15 µM and less than 0.5 µM.
